This is a sample that favours compounds with a hit; in the whole collection about 1.3% have one here.
GSIS activator: GLuc luminescence reporter in INS-1E cells, primary screen for activators of glucose-dependent secretion of insulin; hit rate 0.61% among 370,000; activation, % at 16.6 µM; INS-1E GLuc reporter insulin secretion, 2-3 h;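 active means lowest replicate activation of at least 40%, so every replicate reaches that level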;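 further: 0% = median of neutral control wells and 100% = median of IBMX positive control wells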
SR-BI DiI inh: inhibitors of SR-BI mediated HDL lipid uptake, primary screen, ldlA[mSR-BI] cells, fluorescence, single point. ldlA[mSR-BI] CHO cells, DiI-HDL uptake fluorescence, 3 h. AID 488896, 2010. hit rate 0.96% among 320,000. inhibition, % at 12.5 µM;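 active means mean replicate inhibition of at least 70% and a set share of replicates each scoring 70 or more; inconclusive means meets just one of the two criteria; inactive means fails both criteria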;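 further: 0% = median of neutral control wells and 100% = median of positive control wells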
SR-BI uptake up: activators of SR-BI mediated DiI-HDL uptake, primary screen, ldlA[mSR-BI] CHO cells, DiI fluorescence. 3 h; 100 = double the neutral-control signal. activation, % at 12.5 µM. hit rate 0.096% among 320,000. AID 504775, 2011;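 active means mean replicate activation of at least 60% and every replicate at or above 60%; inconclusive means mean or all-replicate condition met, but not both; inactive means mean below 60% and not all replicates reaching 60%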;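 further: 0% = median plate neutral-control signal and 100% = twice that signal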
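System: LDL receptor-deficient CHO ldlA cells overexpressing murine SR-BI | Timing: 3 h uptake period with compound, 37 °C | Medium: HEPES-buffered (25 mM, pH 7.4) F12 plus 0.5% BSA | Dosing: Single-point compound dose | Signal: Bottom-read fluorescence, 550/595 nm | Read-out: Retained DiI signal reflecting DiI-HDL uptake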
UUG fidelity: alters start codon recognition fidelity in yeast. S. cerevisiae UUG-firefly luciferase reporter, luminescence/redox ratio. activity score, % at 18.7 µM. 0.13% of 350,000 active. AID 602363;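 active = replicate mean at a twofold rise or more, about +100% in these data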;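 also: firefly luciferase made from a UUG start codon reports start codon fidelity; reporter light over untreated wells divided by growth signal over untreated wells; some hits fall short of that in this replicate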
Active calls of the source: *.

`COc1cc(NC(=O)c2cc([N+](=O)[O-])ccc2N2CCOCC2)ccc1NC(=O)c1ccco1` gave GSIS activator 4.0, SR-BI DiI inh 80.3*, SR-BI uptake up -80.3 and UUG fidelity -1.5.
Screening C[C@H]1CN([C@@H](C)CO)C(=O)c2cccc(NC(=O)c3cnccn3)c2O[C@@H]1CN(C)Cc1ccccc1 returned GSIS activator 5.7 and UUG fidelity -11.1.
`COc1ccccc1-c1ccc([C@@H]2[C@@H](CO)N3CCCCN(S(=O)(=O)c4cn(C)cn4)C[C@@H]23)cc1` gave GSIS activator -11.9 and UUG fidelity 15.6.
Screening CCOc1cc(/C=N/NC(=O)CCn2nc(C)cc2C)ccc1O returned GSIS activator 53.0*.
Screening O=C(CCN1CCCCC1)NCC[C@@H]1CC[C@H](NC(=O)C2CCCC2)[C@@H](CO)O1 returned GSIS activator 8.0 and UUG fidelity 3.0.
Cc1ccccc1Nc1nnc(SCC(=O)N(C)C2CCS(=O)(=O)C2)s1 (stereo unspecified) was read as GSIS activator 10.6, SR-BI DiI inh -13.8, SR-BI uptake up 13.8 and UUG fidelity -9.6.
For CCOc1ccccc1Nc1nnc(SCC(=O)N(C)C2CCS(=O)(=O)C2)s1 (stereo unspecified) the results were SR-BI DiI inh 75.2* and SR-BI uptake up -75.2.
For CCOc1ccc(/C=N/NC(=S)Nc2c(C)cccc2C)cc1 the results were UUG fidelity -26.1.
CCNC(=S)N/N=C/c1ccc(OCCOc2ccccc2C)cc1 was read as GSIS activator 136.8*, SR-BI DiI inh inconclusive, SR-BI uptake up -72.4 and UUG fidelity -10.6.
Screening COc1ccc(C(=O)Nc2ccccc2N2CCCCC2)cc1[N+](=O)[O-] returned GSIS activator 9.6, SR-BI DiI inh 77.5* and SR-BI uptake up -77.5.
`COc1ccc(C(=O)NC(=S)Nc2ccccc2N2CCOCC2)cc1Br` gave GSIS activator 13.6, SR-BI DiI inh 54.8, SR-BI uptake up -54.8 and UUG fidelity -18.4.
Screening COc1ccc(C(=O)Nc2ccccc2N2CCOCC2)cc1Br returned GSIS activator 4.4, SR-BI DiI inh 79.9*, SR-BI uptake up -79.9 and UUG fidelity -8.6.
Screening O=[N+]([O-])c1ccccc1CCc1cnc(Cl)s1 returned GSIS activator 2.2, SR-BI DiI inh 84.0*, SR-BI uptake up -84.0 and UUG fidelity -33.8.
For C[C@@H]1CN([C@@H](C)CO)S(=O)(=O)c2ccc(/C=C/c3ccccc3)cc2O[C@H]1CN(C)C(=O)NC1CCCC1 the results were GSIS activator -3.9 and UUG fidelity -0.1.
Screening CCN(CC)CCCNC(=O)CSc1nc(-c2ccc(F)cc2)cc(C(F)(F)F)n1 returned GSIS activator 4.0, SR-BI DiI inh 85.7*, SR-BI uptake up -85.7 and UUG fidelity -15.3.
COc1ccccc1S(=O)(=O)N[C@H]1CC[C@@H](CCn2cc(C3CC3)nn2)O[C@H]1CO was read as GSIS activator -12.7 and UUG fidelity 5.0.
`COc1ccc2c3c([nH]c2c1)[C@H](CO)N(C(=O)Nc1ccc(F)cc1)CC31CCN(S(=O)(=O)c2cn(C)cn2)CC1` gave GSIS activator 2.6.
Screening CCOC(=O)c1c(C)n(-c2ccc(C)cc2)c2ccc(OCC(O)CN3CCN(C)CC3)cc12 (stereo unspecified) returned GSIS activator 121.6*, SR-BI DiI inh -10.7 and SR-BI uptake up 10.7.
COc1ccc(O)c(C(=O)c2coc(=N)c(C(=O)Nc3ccc(SC(F)F)cc3)c2)c1 was read as GSIS activator 21.3, SR-BI DiI inh 76.0*, SR-BI uptake up -76.0 and UUG fidelity -21.9.
For O=C(c1cccc(F)c1)N1C[C@H]2[C@@H](c3ccccc31)[C@@H](CO)N2C(=O)c1cccc(F)c1 the results were GSIS activator -1.2 and UUG fidelity -5.6.
Screening Cc1nn2c(nc(N3CCOCC3)c3ccccc32)c1C=C(C#N)C#N returned GSIS activator 41.1*, SR-BI DiI inh -8.0, SR-BI uptake up 8.0 and UUG fidelity -11.6.
C[C@@H]1CCCCO[C@@H](CN(C)S(C)(=O)=O)[C@H](C)CN([C@H](C)CO)C(=O)c2cc(NC(=O)c3ccccc3)ccc2O1 was read as GSIS activator 11.8 and UUG fidelity 0.0.
COc1cc2c(cc1OC)CN(c1ccc([N+](=O)[O-])cc1C#N)CC2 was read as GSIS activator -19.6, SR-BI DiI inh 64.4 and SR-BI uptake up -64.4.

High-throughput results deposited in PubChem by Broad Institute.
